For 1 molecule, IC50 results are on record in patent US10370339B2, “N-Methylbenzimidazoles as mIDH1 inhibitors” (BAYER PHARMA AKTIENGESELLSCHAFT, priority 2015, dated 2019).

By UniProt entry, the sequences of proteins in these tests, tags left out.
UniProt O75874, whole entry R132H: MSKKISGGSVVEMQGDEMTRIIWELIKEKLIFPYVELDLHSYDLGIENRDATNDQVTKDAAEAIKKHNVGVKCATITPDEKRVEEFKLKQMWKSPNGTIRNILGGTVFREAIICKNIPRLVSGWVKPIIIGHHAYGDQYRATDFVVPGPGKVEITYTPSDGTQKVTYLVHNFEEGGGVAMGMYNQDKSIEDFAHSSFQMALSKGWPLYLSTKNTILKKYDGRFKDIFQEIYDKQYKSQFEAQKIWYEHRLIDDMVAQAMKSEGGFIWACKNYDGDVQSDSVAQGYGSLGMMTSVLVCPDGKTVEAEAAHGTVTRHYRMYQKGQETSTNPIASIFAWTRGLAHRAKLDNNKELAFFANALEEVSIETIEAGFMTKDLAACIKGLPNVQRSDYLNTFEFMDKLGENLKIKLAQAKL

This test has as its target IDH1 R132H enzyme (Homo sapiens (Human), UniProt O75874, R132H). In words: Mutant IDH1 R132H biochemical assay. To be noted: read-out: Mutant IDH1 R132H IC50; NADPH consumption, luminescent readout; 1.5 nM enzyme, 1 μM NADPH, 250 μM α-KG, 30 minutes, 32° C. On the procedure: Mutant IDH1 R132H Biochemical Assay mIDH1 catalyzes the NADPH-dependent reduction of alpha-ketoglutarate (a-KG) to (2R)-2-hydroxyglutarate (2-HG). NADPH consumption was measured by luminescent readout.
The biochemical reactions were performed at 32° C. in 384-well plates using a reaction volume of 41 μL and the following assay buffer conditions: 50 mM Tris pH 7.5, 100 mM NaCl, 20 mM MgCl2, 0.05% BSA, 0.01% Brij, 1 μM NADPH, and 250 μM α-KG. The IDH1 R132H enzyme was used in a final concentration of 1.5 nM. Test compounds were used in a concentration range between 0.002 and 10 μM. The final DMSO concentration was 2.4%.
The reaction was incubated for 30 minutes, then 40 μL of detection mix (0.75 μg/ml Luciferase, 0.02 U/ml Oxidoreductase, 4 μg/mL FMN, 2 μL/ml decanal/ethanol, 50 mM Tris pH 7.5, 0.5% Glycerin, 0.01% Tween-20, 0.05% BSA) was added. Luminescence was measured on a luminescent reader (10 seconds measuring time, 1 second integration period, 30% sensitivity). The decrease in luminescence is proportional to mIDH1 activity. IC50 values are determined by interpolation from plots of relative luminescence versus inhibitor concentration.

pIC50: −log10 of the molar value.

Regarding `COC(=O)c1cc2nc(Nc3ccc(OC(F)(F)F)cc3)n([C@@H]3C[C@H](C)CC[C@H]3C(C)C)c2cc1C`, the pIC50 is 7.42.

What is called pIC50 is −log10 of the IC50, conventionally taken in molar units.
